In ChEMBL document CHEMBL1138385, “Synthesis and activity of a potent, specific azabicyclo[3.3.0]-octane-based DPP II inhibitor” (Bioorg Med Chem Lett, 2007):

Experiment: Inhibition of DPP2 expressed in HEK 293T cells assessed as remaining Ala-Pro-AFC substrate cleavage activity at 44 uM

Compound: NCC[C@H](N)C(=O)N1CC[C@H]2CCC[C@H]21
- Activity: 96.1%
